# Test results as given in PubChem BioAssay (NCI).
#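 Method: 48-hour compound exposure of cells in 96-well plates, five concentrations, linear interpolation of endpoints. At the GI50, growth is halved. TGI denotes the concentration required for complete inhibition of growth.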
# Tests used:
# Test in all cases: NCI tumour cell line growth inhibition, 48 h
# A498 renal = test system: A498 renal
# A549 NSCLC = test system: A549 NSCLC
# CAKI-1 renal = test system: CAKI-1 renal
# CCRF-CEM leukemia = test system: CCRF-CEM leukemia
# COLO 205 colon = test system: COLO 205 colon
# DMS 114 small cell lung = test system: DMS 114 small cell lung
# DMS 273 small cell lung = test system: DMS 273 small cell lung
# EKVX NSCLC = test system: EKVX NSCLC
# HCC-2998 colon = test system: HCC-2998 colon
# HCT-116 colon = test system: HCT-116 colon
# HCT-15 colon = test system: HCT-15 colon
# HOP-18 NSCLC = test system: HOP-18 NSCLC
# HOP-62 NSCLC = test system: HOP-62 NSCLC
# HOP-92 NSCLC = test system: HOP-92 NSCLC
# HT29 colon = test system: HT29 colon
# IGROV1 ovarian = test system: IGROV1 ovarian
# K-562 leukemia = test system: K-562 leukemia
# KM12 colon = test system: KM12 colon
# KM20L2 colon = test system: KM20L2 colon
# LOX IMVI melanoma = test system: LOX IMVI melanoma
# M19-MEL melanoma = test system: M19-MEL melanoma
# MALME-3M melanoma = test system: MALME-3M melanoma
# MCF7 breast = test system: MCF7 breast
# MOLT-4 leukemia = test system: MOLT-4 leukemia
# NCI-H226 lung = test system: NCI-H226 lung
# NCI-H23 lung = test system: NCI-H23 lung
# NCI-H322M lung = test system: NCI-H322M lung
# NCI-H460 lung = test system: NCI-H460 lung
# NCI-H522 lung = test system: NCI-H522 lung
# NCI/ADR-RES ovarian = test system: NCI/ADR-RES ovarian
# OVCAR-3 ovarian = test system: OVCAR-3 ovarian
# OVCAR-4 ovarian = test system: OVCAR-4 ovarian
# OVCAR-5 ovarian = test system: OVCAR-5 ovarian
# OVCAR-8 ovarian = test system: OVCAR-8 ovarian
# P388 leukemia = test system: P388 leukemia
# P388/ADR leukemia = test system: P388/ADR leukemia
# RPMI-8226 leukemia = test system: RPMI-8226 leukemia
# RXF 393 renal = test system: RXF 393 renal
# SF-268 CNS = test system: SF-268 CNS
# SF-295 CNS = test system: SF-295 CNS
# SF-539 CNS = test system: SF-539 CNS
# SK-MEL-2 melanoma = test system: SK-MEL-2 melanoma
# SK-MEL-28 melanoma = test system: SK-MEL-28 melanoma
# SK-MEL-5 melanoma = test system: SK-MEL-5 melanoma
# SK-OV-3 ovarian = test system: SK-OV-3 ovarian
# SN12C renal = test system: SN12C renal
# SN12K1 renal = test system: SN12K1 renal
# SNB-19 CNS = test system: SNB-19 CNS
# SNB-75 CNS = test system: SNB-75 CNS
# SNB-78 CNS = test system: SNB-78 CNS
# SW-620 colon = test system: SW-620 colon
# U251 CNS = test system: U251 CNS
# UACC-257 melanoma = test system: UACC-257 melanoma
# UACC-62 melanoma = test system: UACC-62 melanoma
# UO-31 renal = test system: UO-31 renal
# XF 498 CNS = test system: XF 498 CNS
smiles,measurement,setting,value
C1C[N-]1.C1C[N-]1.[Cl][Pt+2][Cl],GI50,A498 renal,36.2 µM
same,TGI,A498 renal,> 100 µM
same,GI50,A549 NSCLC,25.5 µM
same,TGI,A549 NSCLC,> 100 µM
same,GI50,CAKI-1 renal,15.1 µM
same,TGI,CAKI-1 renal,60 µM
same,GI50,CCRF-CEM leukemia,3.66 µM
same,TGI,CCRF-CEM leukemia,16.4 µM
same,GI50,COLO 205 colon,15 µM
same,TGI,COLO 205 colon,30.7 µM
same,GI50,DMS 114 small cell lung,0.0655 µM
same,TGI,DMS 114 small cell lung,1.02 µM
same,GI50,DMS 273 small cell lung,9.92 µM
same,TGI,DMS 273 small cell lung,41.8 µM
same,GI50,EKVX NSCLC,13.8 µM
same,TGI,EKVX NSCLC,38.5 µM
same,GI50,HCC-2998 colon,35.2 µM
same,TGI,HCC-2998 colon,59.4 µM
same,GI50,HCT-116 colon,16.1 µM
same,TGI,HCT-116 colon,36.7 µM
same,GI50,HCT-15 colon,14.4 µM
same,TGI,HCT-15 colon,34.9 µM
same,GI50,HOP-18 NSCLC,26.7 µM
same,TGI,HOP-18 NSCLC,72.8 µM
same,GI50,HOP-62 NSCLC,32.6 µM
same,TGI,HOP-62 NSCLC,> 100 µM
same,GI50,HOP-92 NSCLC,41.1 µM
same,TGI,HOP-92 NSCLC,86.4 µM
same,GI50,HT29 colon,17.5 µM
same,TGI,HT29 colon,45 µM
same,GI50,IGROV1 ovarian,12.8 µM
same,TGI,IGROV1 ovarian,41 µM
same,GI50,K-562 leukemia,17 µM
same,TGI,K-562 leukemia,50.6 µM
same,GI50,KM12 colon,29.7 µM
same,TGI,KM12 colon,83.5 µM
same,GI50,KM20L2 colon,13.7 µM
same,TGI,KM20L2 colon,31.8 µM
same,GI50,LOX IMVI melanoma,16.2 µM
same,TGI,LOX IMVI melanoma,49.3 µM
same,GI50,M19-MEL melanoma,14.3 µM
same,TGI,M19-MEL melanoma,43.1 µM
same,GI50,MALME-3M melanoma,18.4 µM
same,TGI,MALME-3M melanoma,46.8 µM
same,GI50,MCF7 breast,15.2 µM
same,TGI,MCF7 breast,> 100 µM
same,GI50,MOLT-4 leukemia,1.79 µM
same,TGI,MOLT-4 leukemia,11 µM
same,GI50,NCI-H226 lung,19.7 µM
same,TGI,NCI-H226 lung,52.6 µM
same,GI50,NCI-H23 lung,23 µM
same,TGI,NCI-H23 lung,62.8 µM
same,GI50,NCI-H322M lung,26.8 µM
same,TGI,NCI-H322M lung,90.3 µM
same,GI50,NCI-H460 lung,5.04 µM
same,TGI,NCI-H460 lung,22.3 µM
same,GI50,NCI-H522 lung,6 µM
same,TGI,NCI-H522 lung,31.3 µM
same,GI50,NCI/ADR-RES ovarian,21.6 µM
same,TGI,NCI/ADR-RES ovarian,60 µM
same,GI50,OVCAR-3 ovarian,22 µM
same,TGI,OVCAR-3 ovarian,74.5 µM
same,GI50,OVCAR-4 ovarian,24 µM
same,TGI,OVCAR-4 ovarian,91 µM
same,GI50,OVCAR-5 ovarian,39.7 µM
same,TGI,OVCAR-5 ovarian,> 100 µM
same,GI50,OVCAR-8 ovarian,29.3 µM
same,TGI,OVCAR-8 ovarian,> 100 µM
same,GI50,P388 leukemia,3.43 µM
same,TGI,P388 leukemia,13.6 µM
same,GI50,P388/ADR leukemia,4.79 µM
same,TGI,P388/ADR leukemia,15.3 µM
same,GI50,RPMI-8226 leukemia,14 µM
same,TGI,RPMI-8226 leukemia,46 µM
same,GI50,RXF 393 renal,14.1 µM
same,TGI,RXF 393 renal,33.6 µM
same,GI50,SF-268 CNS,8.94 µM
same,TGI,SF-268 CNS,43.9 µM
same,GI50,SF-295 CNS,21.3 µM
same,TGI,SF-295 CNS,94.9 µM
same,GI50,SF-539 CNS,22.4 µM
same,TGI,SF-539 CNS,67.5 µM
same,GI50,SK-MEL-2 melanoma,18.5 µM
same,TGI,SK-MEL-2 melanoma,41.7 µM
same,GI50,SK-MEL-28 melanoma,16.1 µM
same,TGI,SK-MEL-28 melanoma,46.9 µM
same,GI50,SK-MEL-5 melanoma,13.4 µM
same,TGI,SK-MEL-5 melanoma,25 µM
same,GI50,SK-OV-3 ovarian,17.9 µM
same,TGI,SK-OV-3 ovarian,53.3 µM
same,GI50,SN12C renal,20.2 µM
same,TGI,SN12C renal,74.7 µM
same,GI50,SN12K1 renal,17.7 µM
same,TGI,SN12K1 renal,47.8 µM
same,GI50,SNB-19 CNS,12.8 µM
same,TGI,SNB-19 CNS,39.7 µM
same,GI50,SNB-75 CNS,18.9 µM
same,TGI,SNB-75 CNS,> 100 µM
same,GI50,SNB-78 CNS,21.6 µM
same,TGI,SNB-78 CNS,> 100 µM
same,GI50,SW-620 colon,13.5 µM
same,TGI,SW-620 colon,36.2 µM
same,GI50,U251 CNS,13.5 µM
same,TGI,U251 CNS,34.8 µM
same,GI50,UACC-257 melanoma,27.7 µM
same,TGI,UACC-257 melanoma,80.2 µM
same,GI50,UACC-62 melanoma,12.7 µM
same,TGI,UACC-62 melanoma,29.8 µM
same,GI50,UO-31 renal,21.6 µM
same,TGI,UO-31 renal,47.9 µM
same,GI50,XF 498 CNS,14.5 µM
same,TGI,XF 498 CNS,41 µM
